In PubChem BioAssay AID652054 (National Center for Advancing Translational Sciences (NCATS), 2013):
The list shows a part of the results, in another mix than the full data. Records with an inconclusive call do not appear. Activity calls are given as the source filed them. Rule as the data show it: active = max response below about -50%; inconclusive = no clear call, values can overlap the other calls; inactive = above that.

Protein sequences, listed by entry. Tags and fused reporters are not part of them.
UniProt P35462, whole entry, looked up: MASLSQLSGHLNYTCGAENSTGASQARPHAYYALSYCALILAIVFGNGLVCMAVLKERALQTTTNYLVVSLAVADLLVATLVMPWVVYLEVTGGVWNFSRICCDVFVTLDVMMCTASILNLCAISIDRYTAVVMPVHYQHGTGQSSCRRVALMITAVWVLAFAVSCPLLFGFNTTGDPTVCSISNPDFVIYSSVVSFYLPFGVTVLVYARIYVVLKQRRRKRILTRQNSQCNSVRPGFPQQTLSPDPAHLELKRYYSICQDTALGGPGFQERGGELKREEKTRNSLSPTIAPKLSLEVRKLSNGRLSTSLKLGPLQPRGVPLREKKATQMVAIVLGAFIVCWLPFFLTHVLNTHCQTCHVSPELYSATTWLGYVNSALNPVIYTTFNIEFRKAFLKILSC

Target: D(3) dopamine receptor (Homo sapiens) (UniProt P35462)
Assay: qHTS of D3 Dopamine Receptor Antagonist: qHTS
Details: D3R cells, DiscoveRx beta-arrestin luminescence, antagonist mode; active compounds read low
Source text: D3 DARs represent a very important target for the treatment of several neuropsychiatric disorders. Indeed, one of the most promising therapeutic applications for the D3 DAR is in the area of addiction and related disorders. […] These findings have been observed with a number of addictive substances including cocaine, amphetamine, nicotine, and alcohol. […] Antagonism of the D3 DAR may also be therapeutic in the treatment of schizophrenia or psychosis. […] Since the D3 DAR is expressed in areas of the CNS associated with the control of mood and emotion, it has been hypothesized that selective antagonism of the D3 DAR may be effective in treating psychosis without inducing the motor side effects typically seen with D2 DAR antagonists.
This part of the project aims to discover novel antagonist.
NIH Chemical Genomics Center [NCGC]
NIH Molecular Libraries Probe Centers Network [MLPCN]
Assay Submitter (PI): David Sibley, NINDS
Freshly passaged cells are plated in 1536 well white, solid bottom plates at a density of 1500 cells/well in 3microl of complete media. After an overnight incubation at 37 degrees C in 5% CO2, cells are loaded with 23nl of test compound from the compound library (as well as dopamine controls) using a 1536 pintool and incubated at 37 degrees C for 90 minutes. Two microliters of DiscoveRx reagent is then added to all cells, and they are incubated for an additional 30 - 60 minutes at room temperature. Following incubation, luminescence is measured on a ViewLux CCD-based luminometer reader using a 20 sec exposure time.
% is scaled to controls: 0 for no effect and ±100 for the full control effect.

Row | Compound | max response, negative = inhibition
1 | CCOC(=O)Nc1cccc([As](=O)(O)O)c1 | inactive: 2.32%
2 | O=P(Nc1ccccn1)(c1cccc2ccccc12)c1cccc2ccccc12 | inactive: 1.01%
3 | Cc1cc(SC(NC=O)C(Cl)(Cl)Cl)ncn1 (stereo not drawn) | inactive: -9.09%
4 | O=[N+]([O-])c1ccc(Nc2ccc(Oc3ccc([N+](=O)[O-])cc3[N+](=O)[O-])cc2)c([N+](=O)[O-])c1 | inactive: 9.26%
5 | CCOC(=O)Nc1ccc([As](=O)(O)O)c(O)c1 | inactive: 2.45%
6 | O=C(O)C(O)c1ccc(N(CCCl)CCCl)cc1 (stereo not drawn) | inactive: 21.7%
7 | CC1CCNP(=O)(N(CCCl)CCCl)O1 (stereo not drawn) | inactive: -13.4%
8 | COP(=O)(OC)N1CC1c1ccccc1 (stereo not drawn) | inactive: -13.6%
9 | Cc1cc(SC(NC(=O)c2ccccc2)C(Cl)(Cl)Cl)nc(C(C)C)n1 (stereo not drawn) | inactive: -4.26%
10 | CCCCOc1ccc(C(=O)NCC2(N3CCCCC3)CCCCC2)cc1OC | inactive: -28.3%
11 | CSc1ccc(Nc2c([N+](=O)[O-])cc([N+](=O)[O-])cc2[N+](=O)[O-])cc1 | active: -53.7%
12 | O=C(OC1CN2CCC1CC2)c1cccc([N+](=O)[O-])c1 (stereo not drawn) | inactive: -16.3%
13 | CCOC(=O)c1ccc(NC(=O)C(C)(CCl)SC)cc1 (stereo not drawn) | inactive: -18.3%
14 | CCC(C)N(CC(C)C)C(=S)SC(NC(C)=O)C(Cl)(Cl)Cl (stereo not drawn) | inactive: -25.6%
15 | COC(=O)C1(C)COP(=O)(N2CCCC2)OC1 (stereo not drawn) | inactive: -21.9%
16 | COP1(=S)c2c(C)nn(CCC#N)c2N=C(c2ccc(F)cc2)N1C (stereo not drawn) | inactive: -26.6%
17 | O=C(O)C(=O)c1ccc(N(CCCl)CCCl)cc1 | inactive: -23.2%
18 | O=C(Nc1ccncc1[N+](=O)[O-])c1ccc([N+](=O)[O-])cc1[N+](=O)[O-] | inactive: -4%
19 | O=C(COc1ccccc1)OC1CN2CCC1CC2 (stereo not drawn) | inactive: 30.4%
20 | O=[N+]([O-])c1cc(Oc2ccc([N+](=O)[O-])cc2C(F)(F)F)cc([N+](=O)[O-])c1 | inactive: 0%
21 | COc1ccc(N/C(=N/P(=O)(N2CCOCC2)N2CCOCC2)N2CCOCC2)cc1 | inactive: -5.03%

Row | Compound | max response, negative = inhibition
22 | Cc1c2c(nc3ccccc13)SC(C(Cl)Cl)C2 (stereo not drawn) | inactive: -1.19%
23 | Cc1cc(=O)[nH]c(N[N+](=O)[O-])n1 | inactive: 2.11%
24 | O=C(OC1CN2CCC1CC2)C12CC3CC(CC(C3)C1)C2 (stereo not drawn) | active: -51.8%
25 | O=P1(N(CCCl)CCCl)OCCCN1CCCl (stereo not drawn) | inactive: -19.6%
26 | O=P1(N(CCCl)CCCl)Nc2ccccc2N1 | inactive: -0.561%
27 | COc1cc(I)ccc1[As](=O)(O)O | inactive: -2.05%
28 | COc1ccc2nc(NP(=O)(c3ccccc3)c3ccccc3)sc2c1 | inactive: 6.57%
29 | ClCCSc1nnc(-c2cccnc2)o1 | inactive: 9.77%
30 | COC(=O)C1(C)COP(=O)(N2CCCCCC2)OC1 (stereo not drawn) | inactive: 0.323%
31 | CC(C)c1ccc(OP(=O)(Nc2ccccn2)Oc2ccccc2F)cc1 (stereo not drawn) | inactive: -12.5%
32 | CC(C)NC(=O)NP(=O)(Oc1ccccc1)Oc1ccccc1 | inactive: 5.33%
33 | O=C(OC1CN2CCC1CC2)c1cccc2[nH]cnc12 (stereo not drawn) | inactive: 11%
34 | CCN(CC)C(=S)SC(NC=O)C(Cl)(Cl)Cl (stereo not drawn) | inactive: 3.3%
35 | O=[N+]([O-])c1ccc(-c2cc([N+](=O)[O-])c(O)c([N+](=O)[O-])c2)cc1 | inactive: 0%
36 | COc1cc(C(=O)NCC2(N3CCOCC3)CCCCC2)ccc1OCC(C)C | inactive: -6.03%
37 | C[As](=O)(O)c1cccc(C(=O)O)c1 | inactive: -6.35%
38 | O=[As](O)(c1ccc(O)cc1)c1ccccc1O | inactive: 1.1%
39 | Cc1ccc(OP(=O)(Nc2ccc([N+](=O)[O-])cn2)Oc2ccc(C)cc2)cc1 | inactive: 9.83%
40 | Cc1ccc2nc3c(c(C)c2c1)CC(C(Cl)Cl)S3 (stereo not drawn) | inactive: 13.1%
41 | NC(=O)Nc1ccc([As](=O)(O)O)cc1 | inactive: -22.4%
42 | CN(C(=O)Cc1ccccc1)[C@@H]1CC[C@]2(CCCO2)C[C@H]1N1CCCC1 | inactive: 9.1%

Row | Compound | max response, negative = inhibition
43 | CCOP1(=S)c2c(C)nn(CCC#N)c2N=C(c2ccc(F)cc2)N1C (stereo not drawn) | inactive: 3.95%
44 | N#CCCN(C(=O)COC(=O)C(O)(c1ccccc1)c1ccccc1)c1ccc(F)cc1 | inactive: -13.7%
45 | CN(C(=O)Cc1ccc(Cl)c(Cl)c1)[C@H]1CC[C@@]2(CCCO2)C[C@@H]1N1CCCC1 | inactive: -6.96%
46 | O=[N+]([O-])c1ccc2c(c1)nnn2O | inactive: -7.48%
47 | CN(C)C(=O)c1cc([N+](=O)[O-])cc2c1-c1c(cc([N+](=O)[O-])cc1[N+](=O)[O-])C2=O | active: -106%
48 | O=P(Nc1nccs1)(Oc1ccccc1)Oc1ccccc1 | inactive: -28.5%
49 | O=P(Nc1nccs1)(c1ccccc1)c1nc2ccccc2s1 (stereo not drawn) | active: -92.1%
50 | CCOP1(=S)c2c(C)nn(CCC#N)c2N=C(c2ccccc2F)N1C (stereo not drawn) | inactive: -20.4%
51 | CS(=O)(=O)c1cc([N+](=O)[O-])c2no[n+]([O-])c2c1 | inactive: -10.6%
52 | Nc1ccccc1[As](=O)(O)c1ccccc1 | inactive: 1.55%
53 | O=C(O)COc1ccc([As](=O)(O)O)cc1[N+](=O)[O-] | inactive: 1.78%
54 | Nc1cccc2c([As](=O)(O)O)cccc12 | inactive: -0.981%
55 | Cc1ccc(NCCc2c([N+](=O)[O-])cc([N+](=O)[O-])cc2[N+](=O)[O-])cc1 | inactive: -3.01%
56 | CCCOP(=S)(Nc1nc(N)cc(=O)[nH]1)OCCC | inactive: -3.85%
57 | CCOP(=O)(Nc1cccc2ccccc12)OCC | inactive: -14.8%
58 | COc1cc(C2NCCC3(OCCO3)C2(C)C)cc(OC)c1OC (stereo not drawn) | active: -61.3%
59 | O=C(OC1CN2CCC1CC2)c1ccc(Cl)cc1 (stereo not drawn) | inactive: 15.1%
60 | CS(=O)(=O)c1ccc(Cl)c(NC(=O)COC(=O)C(O)(c2ccccc2)c2ccccc2)c1 | inactive: -11.7%
61 | O=[As](O)(O)c1cccnc1 | inactive: 4.42%
62 | COc1cc(C(=O)NCC2(N3CCOCC3)CCCCC2)cc(Cl)c1OC(C)C | inactive: -5.04%
63 | Cc1cccc(OCC(=O)OC2CN3CCC2CC3)c1 (stereo not drawn) | inactive: -16.1%
